The text below walks through data of patent publication US11110092B2, “Methods of treating hematologic cancers” (BIOCRYST PHARMACEUTICALS, INC, priority 2007, dated 2021).

The test system of this data set is primary leukemic cells from patients with CLL. To be noted: bendamustine low dose 10 μM, alone or in combination with forodesine.

SMILES strings stand for the structures.

Take `Cl.Cn1c(CCCC(=O)O)nc2cc(N(CCCl)CCCl)ccc21` [Bendamustine]: the mean cytotoxicity is given as 32.95%.
